Assay results: PubChem BioAssay AID602151 (Vanderbilt Specialized Chemistry Center, 2011)

Sequences of proteins named here, by UniProt entry; tags and fusion partners are left off. A change or cut given only in a name is not applied to a line headed by its entry.
UniProt Q13393: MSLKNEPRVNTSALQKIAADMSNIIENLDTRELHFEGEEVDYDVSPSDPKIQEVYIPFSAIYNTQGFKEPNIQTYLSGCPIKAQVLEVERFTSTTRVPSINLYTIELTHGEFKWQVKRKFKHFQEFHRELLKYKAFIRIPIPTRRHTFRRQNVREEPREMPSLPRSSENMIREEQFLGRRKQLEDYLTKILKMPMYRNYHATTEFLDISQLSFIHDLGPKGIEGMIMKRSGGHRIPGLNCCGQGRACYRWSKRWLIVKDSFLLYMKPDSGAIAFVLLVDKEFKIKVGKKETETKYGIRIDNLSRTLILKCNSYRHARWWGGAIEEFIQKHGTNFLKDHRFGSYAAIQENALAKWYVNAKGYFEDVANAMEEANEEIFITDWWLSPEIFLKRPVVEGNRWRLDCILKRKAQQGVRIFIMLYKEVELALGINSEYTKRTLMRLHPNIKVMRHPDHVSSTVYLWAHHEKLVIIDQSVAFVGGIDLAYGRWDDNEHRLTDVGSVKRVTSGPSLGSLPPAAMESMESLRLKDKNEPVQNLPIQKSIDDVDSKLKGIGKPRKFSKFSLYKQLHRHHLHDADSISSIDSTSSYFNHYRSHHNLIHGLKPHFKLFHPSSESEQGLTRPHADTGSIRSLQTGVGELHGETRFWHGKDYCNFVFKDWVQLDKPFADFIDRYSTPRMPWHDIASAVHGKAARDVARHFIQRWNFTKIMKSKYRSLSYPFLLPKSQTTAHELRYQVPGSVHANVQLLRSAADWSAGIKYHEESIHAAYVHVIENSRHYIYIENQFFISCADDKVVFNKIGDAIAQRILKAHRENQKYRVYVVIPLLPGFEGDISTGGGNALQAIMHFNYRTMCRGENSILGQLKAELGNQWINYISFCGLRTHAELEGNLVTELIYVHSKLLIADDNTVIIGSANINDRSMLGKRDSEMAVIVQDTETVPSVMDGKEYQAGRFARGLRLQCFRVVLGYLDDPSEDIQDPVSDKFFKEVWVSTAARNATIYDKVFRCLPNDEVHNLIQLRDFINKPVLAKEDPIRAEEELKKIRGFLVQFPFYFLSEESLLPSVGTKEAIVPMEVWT

Target: Phospholipase D1 (Homo sapiens) (UniProt Q13393)
Assay: PLD1 inhibitor potency in cells, dose response (AID 602151)
Conditions: cellular PLD1 activity assay

O=C(NCCN1CCC2(CC1)C(=O)NCN2c1cccc(F)c1)c1ccc(F)cc1
IC50: 12 µM
